Results published in publication PMC11078990, “Identification and characterization of small molecule inhibitors of the LINE-1 retrotransposon endonuclease” (Nature Communications, 2024).

Protein sequences, listed by entry. Tags and fused reporters are not part of them. Residues count along the entry.
UniProt O00370, 1-239 N5T limits assumed: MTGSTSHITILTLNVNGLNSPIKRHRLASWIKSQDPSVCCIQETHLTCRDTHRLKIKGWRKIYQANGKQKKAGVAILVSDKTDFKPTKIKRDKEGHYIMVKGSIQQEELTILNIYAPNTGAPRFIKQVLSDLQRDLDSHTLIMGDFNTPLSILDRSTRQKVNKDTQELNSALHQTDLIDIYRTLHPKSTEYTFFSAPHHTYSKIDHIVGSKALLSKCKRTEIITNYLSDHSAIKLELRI
UniProt P27695, whole entry: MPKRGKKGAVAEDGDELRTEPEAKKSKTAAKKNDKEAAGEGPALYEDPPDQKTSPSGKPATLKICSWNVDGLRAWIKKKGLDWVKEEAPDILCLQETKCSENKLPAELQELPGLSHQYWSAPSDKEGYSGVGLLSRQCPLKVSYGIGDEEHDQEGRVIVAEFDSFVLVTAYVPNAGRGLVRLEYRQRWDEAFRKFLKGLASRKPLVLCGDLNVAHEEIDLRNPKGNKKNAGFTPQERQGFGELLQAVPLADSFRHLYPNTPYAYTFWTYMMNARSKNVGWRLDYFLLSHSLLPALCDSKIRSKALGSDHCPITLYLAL

What was measured:
EN = EN (Homo sapiens, UniProt O00370, N5T); experiment: Plasmid nicking EN activity assay; format: biochemical; settings: qualitative, agarose gel
APE1 = APE1 (Homo sapiens, UniProt P27695); experiment: APE1 fluorescent oligonucleotide activity assay (abasic site substrate); format: biochemical

CCn1c2ccccc2c2cc(/C=N\Nc3cc(C)nc4cc5c(cc34)OCO5)ccc21
Inhibition of EN activity in plasmid nicking assay (EN): did not inhibit EN activity
Percent APE1 activity, average (APE1; 25 µM, Supplementary Fig. 6b, n=3): 0.1324%
APE1 percent activity, Replicate 1 (APE1; compound at 25 μM, Replicate 1): 0.7562%
APE1 percent activity, Replicate 2 (APE1; compound at 25 μM, Replicate 2): 0.5127%
APE1 percent activity, Replicate 3 (APE1; compound at 25 μM, Replicate 3): 0.1324%
APE1 percent activity, average (APE1; compound at 25 μM, average of 3 replicates): 0.4671%
APE1 activity (%) (APE1; inhibitors at 25 μM, relative to 0 μM inhibitor control, mean ± s.d., 3 independent experiments): 0.5 ± 0.3%
